Measured affinities in a library of Ab-14 light chain variants

Antigen: PDVDLGDISGINAS, a 14-residue peptide of the SARS-CoV-2 spike HR2 region.

Each scFv is VH, the linker GGGGSGGGGSGGGGS, VL, as in the parent Ab-14, and differs from it in the CDRs of the light chain only.
VH: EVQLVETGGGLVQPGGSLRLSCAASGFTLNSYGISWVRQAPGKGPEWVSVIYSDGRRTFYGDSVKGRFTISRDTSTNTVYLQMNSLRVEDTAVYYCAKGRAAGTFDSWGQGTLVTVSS
VL: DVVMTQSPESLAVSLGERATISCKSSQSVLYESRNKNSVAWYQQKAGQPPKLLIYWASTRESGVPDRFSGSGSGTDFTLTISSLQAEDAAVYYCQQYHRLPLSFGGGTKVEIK

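The parent was found by panning a naive human phage display library on the peptide. The variants were designed computationally from a first round of random CDR variants and then made and measured. Their group label is 14L_En_HC (En: ensemble of fine-tuned language models; HC: hill climbing; a sequence that several methods proposed may carry one label only). The scFvs were displayed on barcoded MATa yeast, the peptide on MATalpha yeast. The frequency of each diploid, read from paired DNA barcodes, reflects how well the two displayed proteins bind. Scores were corrected for input abundance and mapped to Kd with protein pairs of known affinity run in the same pool. Each pool was mated in six replicate cultures.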

Each variant is given by its three light chain CDRs, as the data file delimits them; those of the parent are KSSQSVLYESRNKNSVA, WASTRES, QQYHRLPLS. Values are log10 of the apparent Kd in nM; lower means stronger binding. Where no diploid with the target was found in that replicate, the entry reads "n.d.": below detection, most likely a poor binder, though not proof of it. The authors averaged sequences with at least three values out of six and counted those with two or fewer as poor binders. Of ten entries with the parent sequence, four were seen in most replicates (averages 0.34 to 2.37), three in one and three in none, so single entries are noisy. A sequence measured in both rounds can read differently, since the two assays cover different ranges. Empty control strains, which show no peptide, gave a signal in 4% of pairings with all light chain designs; the median was 2.64 and 95% of these signals were weaker than 1.59. No background was subtracted. For each scFv, signals with the empty controls are counted beside the result, with their mean in brackets.

| CDR-L1 | CDR-L2 | CDR-L3 | log10 Kd, replicates | signal with controls |
|---|---|---|---|---|
| KIGQSVLMGSYVRNSVA | QQSTREN | QQYDRLPLS | 0.65 / 0.80 / 0.61 / 0.69 / 0.49 / 0.85 | 2/18 (3.80) |
| TISQSFLMENQFKNSVA | QAQTRES | QCYDRLPLS | n.d. / 2.49 / n.d. / n.d. / n.d. / 2.52 | 1/18 (1.56) |
| ALSQSMDMTSHNVNSVA | DLTTRGN | QQYHRLPLS | 0.00 / -0.19 / -0.52 / -0.31 / -0.11 / -0.42 | 2/18 (2.47) |
| SIYDTTGMESRNKNPIA | DVSTRPS | QQYDRLPLS | 0.73 / 0.61 / 0.45 / 0.91 / 1.00 / 1.04 | 0/18 |
| KLGDMVHTLSRNKNSIA | DLRTRES | QQYYRLPLS | 0.28 / 0.14 / -0.09 / -0.11 / -0.08 / 0.14 | 1/18 (2.25) |
| ILSQMLWTAGNKHNSVA | QANYRES | QQYHRLPLS | n.d. / n.d. / n.d. / n.d. / 1.69 / n.d. | 0/18 |
| KLYASTMLESHDKNSIA | DLSTRGN | QQYHRLPLS | 0.39 / 0.40 / 0.56 / 0.27 / 0.23 / 0.49 | 1/18 (2.63) |
| TISTSMRYESSLKNAIA | NAQERES | QQYHRLPIS | 1.17 / 0.74 / 0.55 / 0.44 / 0.58 / 0.77 | 2/18 (2.99) |
| MISQLFMYGYRNYNSIA | QAETREK | QQYDRLPLE | 2.14 / 1.71 / 1.62 / 1.58 / 1.47 / 1.39 | 0/18 |
| HVSEMIFAQMKARNSVA | ENSTREA | QQYDRLPLS | n.d. / n.d. / n.d. / n.d. / n.d. / n.d. | 1/18 (2.29) |
| KIGMQVTYESTNKNAIA | QMTTREE | QQYHRLPLS | -0.06 / 0.14 / 0.10 / 0.05 / -0.13 / -0.06 | 1/18 (2.10) |
| KLSTLFYKESKNKNNVA | EMTTRGS | QQYDRLPLS | 0.37 / 0.19 / 0.34 / 0.76 / 0.23 / 0.14 | 2/18 (2.11) |
| MMSMGYLGGMRAKNNVA | QEETREE | QQYHRLPLI | 0.82 / 0.93 / 0.81 / 1.20 / 0.87 / 1.50 | 2/18 (2.41) |
| KISGMYQKESKNKNSVA | EMVNREY | QQYDRLPLS | 0.23 / -0.03 / -0.17 / 0.09 / 0.55 / 0.26 | 1/18 (2.06) |
| KLSMVTEYESRNKNNVA | DLTTRGS | QDYHRLPLS | -0.19 / -0.09 / -0.34 / -0.44 / -0.09 / 0.05 | 0/18 |
| MLLQATMYGERNRNSVA | HAQTRED | QQYHRLPLI | 0.72 / 0.31 / 0.76 / 0.58 / 0.44 / 0.93 | 1/18 (2.08) |
| KIGQQVTYESTMNNAIA | QMTTREE | QQYHRLPLS | 0.39 / 0.48 / 0.12 / 0.19 / 0.41 / 0.61 | 2/18 (3.70) |
| ALSQSADMTSRNKNSVA | DLSTREN | QQYHRLPLS | -0.23 / -0.15 / -0.10 / -0.33 / -0.03 / 0.10 | 0/18 |
| KLSMSMLMESRHKNSVA | ENSTRED | QHYHRLPLS | 1.62 / 1.57 / 1.71 / 1.70 / 0.71 / 2.48 | 3/18 (2.67) |
| KLLEAVLGESYNKNSVA | HNSTRED | QEYARLPLS | 1.95 / 1.60 / 1.92 / 1.35 / 1.70 / 2.17 | 0/18 |
| MISGSVMSESRLKNSVA | QTTTREA | QQYDRLPLS | 0.86 / 0.53 / 0.68 / 0.22 / 0.09 / 0.35 | 0/18 |
| TISQSVLMTGLNRNSVA | QAEERLE | QQYHRLPLS | 1.72 / 1.39 / 0.90 / 0.97 / 1.29 / 1.07 | 0/18 |
| KLLQTVMNETRNRNNVA | HMTTRED | QQYHHLPLS | 0.41 / 0.47 / 0.52 / 0.46 / 0.39 / 0.65 | 2/18 (2.96) |
| KISMSVTFESRNKNSVA | ENSTRES | QSYDRLPLS | n.d. / n.d. / 3.57 / n.d. / n.d. / n.d. | 2/18 (2.60) |
| KISQMVWYESTWWNAIA | QTSEREE | QQYHRLPLS | 1.21 / 1.11 / 0.66 / 0.98 / 1.13 / 1.14 | 1/18 (2.24) |
| MISDLTMYGSRNVNSVA | DLSHRGS | QQYDRLPLS | 0.72 / 0.27 / 0.18 / 0.65 / 0.59 / 0.67 | 1/18 (2.70) |
| TLTQVQGMESHNKNSVA | DLSMRGS | QQYHRLPLS | 0.41 / 0.57 / 0.40 / 0.25 / 0.03 / 0.53 | 1/18 (2.73) |
| MISQMFEGLSTSKNPVA | QVSTREE | QQYHRLPLS | 0.82 / 0.58 / 1.77 / 1.60 / 0.39 / 2.41 | 2/18 (2.69) |
| TISQSMHQESHNKNSVA | DLNVRGS | QQYDRLPLS | 0.33 / 0.19 / 0.22 / 0.13 / 0.09 / 0.29 | 0/18 |
| TISQSTYWESRNKNSVA | QTSTREA | QDYDRLPLS | 3.46 / 1.87 / 2.64 / n.d. / 3.03 / 1.75 | 1/18 (2.14) |
| TISTSAMYESTNKNSVA | ELTTRGS | QQYERLPLS | n.d. / n.d. / n.d. / 2.17 / n.d. / 3.30 | 0/18 |
| KLSVSTSYLSVNKNSIA | EMSTRES | QQYDRLPLS | 0.64 / 0.78 / 0.90 / 0.75 / 0.81 / 1.32 | 3/18 (3.09) |
| KIGGVTNGISFNKNSVA | EQSTRED | QQYNRLPLS | 0.72 / 0.58 / 0.05 / 0.42 / 0.40 / 0.46 | 1/18 (3.21) |
| ALSQSMDMTSRNKNSVA | DLSTRLN | QQYHRLPLS | 0.77 / 0.73 / n.d. / 0.62 / n.d. / n.d. | 0/18 |
| TLTQSVGMESHNKNSVA | DLSNRGQ | QQYHRLPLS | 0.15 / 0.70 / 0.64 / 0.34 / 0.60 / 0.73 | 0/18 |
| KLSQSVNMTGKNKNSVA | ELSFREK | QQYERLPLS | 1.18 / 1.26 / 1.63 / 2.39 / 1.35 / 2.12 | 1/18 (1.53) |
| KLSMFYRVETRNKNSVA | DNSTRES | QDYDRLPLS | n.d. / n.d. / n.d. / n.d. / n.d. / 2.68 | 1/18 (3.24) |
| KLPQATMQENVSKNSVA | ELSTRGS | QQYHRLPLS | 0.78 / 0.54 / 0.34 / 0.57 / 0.59 / 0.55 | 0/18 |
| KLRQVTGYESYAKNSVA | QTSTRVS | QDYHRLPLS | 1.67 / 0.86 / 0.96 / 1.16 / 1.00 / 1.28 | 3/18 (2.67) |
| KLSMMYRYESQEKNSIA | EMSTREE | QSYHRLPLS | 1.69 / 1.45 / 1.19 / 1.78 / 1.82 / 1.96 | 0/18 |

Excerpt, the final 4 entries:

CDR-L1	CDR-L2	CDR-L3	log10 Kd, replicates	signal with controls
KLSMFYRVETRNKNSVA	DNSTRES	QDYDRLPLS	n.d. / n.d. / n.d. / n.d. / n.d. / 2.68	1/18 (3.24)
KLPQATMQENVSKNSVA	ELSTRGS	QQYHRLPLS	0.78 / 0.54 / 0.34 / 0.57 / 0.59 / 0.55	0/18
KLRQVTGYESYAKNSVA	QTSTRVS	QDYHRLPLS	1.67 / 0.86 / 0.96 / 1.16 / 1.00 / 1.28	3/18 (2.67)
KLSMMYRYESQEKNSIA	EMSTREE	QSYHRLPLS	1.69 / 1.45 / 1.19 / 1.78 / 1.82 / 1.96	0/18

Reference: Li et al. 2023, doi:10.1038/s41467-023-39022-2. File: FLAb, binding data.